From PMC11990504 come the findings set out here.

By stoichiometry N is commonly meant a count of units in the complex or per binding partner.

The target of the assay is tKeima (UniProt Q1JV72). The experiment in a line: crystal structure; tKeima crystals grown spontaneously at 4 °C in 10 mM Tris-HCl pH 8.0, 200 mM NaCl, then soaked repeatedly in 0.1 M sodium acetate pH 4.0, 200 mM NaCl; data at 100 K; two molecules in the asymmetric unit, tetramer formed with symmetry mates; interfaces analysed with PISA.

Turning to “tKeima (from UniProt Q1JV72 1-222) (natural protein)”, the stoichiometry N came to 4.
